The results in this text go back to patent US8178690B2, “Compounds and methods for inhibiting the interaction of BCL proteins with binding partners” (Infinity Pharmaceuticals, Inc., priority 2006, dated 2012).

Chains of the proteins cited; added tags and fusions are not shown.
UniProt P10415, whole entry: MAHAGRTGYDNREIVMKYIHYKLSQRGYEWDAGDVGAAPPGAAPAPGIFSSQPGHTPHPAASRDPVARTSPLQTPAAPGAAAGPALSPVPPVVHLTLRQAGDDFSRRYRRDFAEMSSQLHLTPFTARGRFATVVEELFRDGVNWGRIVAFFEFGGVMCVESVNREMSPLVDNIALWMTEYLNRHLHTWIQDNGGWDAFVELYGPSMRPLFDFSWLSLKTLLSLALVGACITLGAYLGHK
UniProt Q07817, whole entry: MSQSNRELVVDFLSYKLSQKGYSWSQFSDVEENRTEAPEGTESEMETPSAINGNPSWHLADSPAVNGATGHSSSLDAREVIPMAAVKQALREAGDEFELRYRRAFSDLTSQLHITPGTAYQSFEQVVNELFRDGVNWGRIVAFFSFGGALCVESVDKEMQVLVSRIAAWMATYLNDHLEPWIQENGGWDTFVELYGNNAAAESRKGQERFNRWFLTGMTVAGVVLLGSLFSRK

Assay [1] has as its target Bcl-2 (Homo sapiens, UniProt P10415). In words: Bcl-2 binding affinity analysis (fluorescence polarization binding assay). As to conditions: read-out: BcI2 (Ki, Bcl-2 binding affinity). An excerpt:
(§1) Bcl-2 and Bcl-xL binding may be determined using a variety of known methods. One such assay is a sensitive and quantitative in vitro binding assay using fluorescence polarization (FP) described by Wang, J.-L.; Zhang, Z-J.; Choksi, S.; Sjam. S.; Lu, Z.; Croce, C. M.; Alnemri, E. S.; Komgold, R.; Huang, Z. Cell permeable Bcl-2 binding peptides: a chemical approach to apoptosis induction in tumor cells. Cancer Res. 2000, 60, 1498-1502).
(§2) Bcl-2 and Bcl-xL binding affinity analysis data is presented below for various compounds of the invention.
A general note: Polarisation of emitted light reports the rotation of a fluorescent probe.

Assay [2] has as its target Bcl-xL (Homo sapiens, UniProt Q07817). Kind of assay: Bcl-xL binding affinity analysis (fluorescence polarization binding assay). The note with it: read-out: BcI-XI (Ki, Bcl-xL binding affinity).
Description: as §1, §2

Bounds are passed on as bounds.

In the case of `COc1c(CN2O[C@@H](CO)[C@@H]([C@H](C)O)[C@H]2C(=O)N[C@H]2C[C@H]3C[C@@H]([C@@H]2C)C3(C)C)cccc1-c1cc(C(=O)N[C@H](CN=C(N(C)C)N(C)C)CC(C)C)cc(N(C)C)c1`, the results for the inhibitory constant (Ki) in assay [1] and in assay [2] were < 1 nM and < 1000 nM, respectively.
The like results for `COc1c(CN2O[C@@H](CO)[C@@H]([C@H](C)O)[C@H]2C(=O)N[C@H]2C[C@H]3C[C@@H]([C@@H]2C)C3(C)C)cccc1-c1cc(C(=O)N[C@@H](CC(C)C)CN2CCOCC2)cc(N(C)C)c1` were, in that order, < 1 nM and < 1000 nM.
Taken in the same sequence, the figures for `COc1c(CN2O[C@@H](CO)[C@@H]([C@H](C)O)[C@H]2C(=O)N[C@H]2C[C@H]3C[C@@H]([C@@H]2C)C3(C)C)cccc1-c1cc(C(=O)N[C@@H](CN(C)C)CC(C)(C)C)cc(N(C)C)c1` were < 1 nM and < 1000 nM.
Taken in the same sequence, the figures for `C[C@@H]1[C@@H](NC(=O)[C@@H]2[C@H]([C@H](C)O)[C@H](CO)ON2Cc2cccc(-c3cc(C(=O)O)cc(N(C)C)c3)c2OCCN(C)C)C[C@H]2C[C@@H]1C2(C)C` were < 1 nM and < 1000 nM.

Usually Ki stands for the dissociation constant of the complex between target and ligand, obtained from inhibition or displacement.
